Data on three compounds can be found in patent US20240335443A1, “IMIDAZOLOPYRIDAZINE OR PYRAZOLOPYRIMIDINE COMPOUNDS AND COMPOSITIONS” (Anrui Biomedical Technology (Guangzhou) Co., Ltd., priority 2021, published 2024).

Amino acid sequences for entries named in this document (tags omitted). Residues count along the entry.
UniProt P29597, 589-875 limits assumed: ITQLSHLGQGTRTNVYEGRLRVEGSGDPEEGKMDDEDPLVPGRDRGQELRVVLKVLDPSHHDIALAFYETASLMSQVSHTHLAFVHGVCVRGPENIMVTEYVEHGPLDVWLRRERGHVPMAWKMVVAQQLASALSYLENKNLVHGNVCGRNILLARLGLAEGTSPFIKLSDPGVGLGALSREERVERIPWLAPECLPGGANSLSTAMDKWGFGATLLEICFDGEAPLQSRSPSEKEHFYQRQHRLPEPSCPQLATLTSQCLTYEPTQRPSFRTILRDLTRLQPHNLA

SMILES strings stand for the structures.

The subject of experiment [1] is IL-23 induced STAT3 in HEK-Blue™ IL-23 cells. As to the kind of experiment: IL-23 induced STAT3 QUANTI-Blue reporter assay in HEK-Blue IL-23 cells. To be noted: read-out: IL23 reporter assay (IC50 nM), IL-23 0.1 ng/mL, SEAP levels, class symbols.
For experiment [2], the target named is N-terminal His-tagged TYK2 pseudokinase domain (Homo sapiens, UniProt P29597). As to the kind of experiment: TYK2 JH2 domain SPA binding assay. The note with it: read-out: TYK2 JH2 SPA Binding assay (IC50 nM); displacement of H3 probe (20 nM), 30 min room temperature; class symbols.

For `[2H]C([2H])([2H])Nc1cc(Nc2cccn(-c3ccccn3)c2=O)nn2c(C(=O)N[C@@H]3C[C@@H]4CCO[C@@H]43)cnc12` (relative stereo), the IC50 was 100 to 1000 nM in experiment [1] and more than 1000 nM in experiment [2].

As to `[2H]C([2H])([2H])Nc1cc(Nc2cccn(-c3ccccn3)c2=O)nn2c(C(=O)N[C@@H]3C[C@H]4CCO[C@H]43)cnc12` (relative stereo), the IC50 in experiment [1] and in experiment [2] was 10 to 100 nM in each case.

As to `CNc1cc(Nc2cccn(-c3ccccn3)c2=O)nc2c(C(=O)N[C@@H]3C[C@@H]4CCO[C@@H]43)cnn12` (relative stereo), the values for the IC50 in experiment [1] and in experiment [2] were 100 to 1000 nM and more than 1000 nM, respectively.
